Measured values reported in patent US12421232B2, “Kinase inhibitor compounds and compositions and methods of use” (ICAHN SCHOOL OF MEDICINE AT MOUNT SINAI, priority 2018, dated 2025).
Read-outs that look alike come from different tables or passages of the source.

Target: DYRK1A (Homo sapiens, UniProt Q13627)
Test: FRET-based LanthaScreen Eu Kinase Binding Assay (Life Technologies)
Conditions: for inhibition at 0.3 µM: read-out: % DYRK1A Inhibition 300 nM; for inhibition at 1 µM: read-out: % DYRK1A Inhibition 1000 nM
[1] = read-out: DYRK1A IC50, ten serial three fold dilutions (in duplicate)

Compound | % DYRK1A Inhibition 300 nM (300 nM) [%] | inhibition at 0.3 µM [%] | inhibition at 1 µM [%] | further results
2-(7-oxy-1-methyl-9-H-b-carbolin)-2-acetyl-ethylamine [Compound 10-6a] | 24 | – | – | % DYRK1A Inhibition 1000 nM (1000 nM): 49%
3-(7-deuteromethoxy-1-methyl-β-carbolin-9-yl)-propan-1-yne [Compound 20-33] | – | – | – | IC50 [1]: 8 nM
3-(7-oxy-1-methyl-9-H-b-carbolin)-2-acetyl-propylamine [Compound 10-6b] | 22 | – | – | % DYRK1A Inhibition 1000 nM (1000 nM): 49%
3-(7-oxy-1-methyl-9-H-b-carbolin)ethoxyethyl [Compound 10-2p] | 19 | – | – | % DYRK1A Inhibition 1000 nM (1000 nM): 37%
4-(7-Methoxy-1-methyl-β-carbolin-9-yl)propionitrile [Compound 20-1o] | – | – | – | % DYRK1A Inhibition 300 nM: 86%; % DYRK1A Inhibition 1000 nM: 94%
6-(6-(7-methoxy-1-methyl-β-carbolin-9-yl)pentyl)-5-amino-1,2,4-oxadiazole [Compound 20-38d] | – | – | – | IC50 [1]: 178 nM
7-acetamide-1-methyl-9H-b-carboline [Compound 10-11] | 48 | – | – | % DYRK1A Inhibition 1000 nM (1000 nM): 77%; IC50 [1]: 389 nM
Cc1nccc2c1[nH]c1cc(OCCCNC(=O)OC(C)(C)C)ccc12 [Compound 10-2l, 3-(7-oxy-1-methyl-9-H-b-carbolin)propyl tert-butyl carbamate] | – | – | – | % DYRK1A Inhibition 1000 nM (1000 nM): 50%
Cc1nccc2c1[nH]c1cc(OCC(N)=O)ccc12 [Compound 10-3a, 2-(7-oxy-1-methyl-9-H-b-carbolin)acetamide] | 10 | – | – | % DYRK1A Inhibition 1000 nM (1000 nM): 30%
Cc1nccc2c1[nH]c1cc(OCC(=O)O)ccc12 [Compound 10-4a, 2-(7-oxy-1-methyl-9-H-b-carbolin)acetic acid] | – | 3 | 6 | IC50 (DYRK1A IC50): 71 nM
Cc1nccc2c1[nH]c1cc(OCCCC(=O)O)ccc12 [Compound 10-4c, 4-(7-oxy-1-methyl-9-H-b-carbolin)butnoic acid] | 6 | – | – | –
Cc1nccc2c1[nH]c1cc(OCCCCC(=O)O)ccc12 [Compound 10-4d, 5-(7-oxy-1-methyl-9-H-b-carbolin)pentanoic acid] | 20 | – | – | –
Cc1nccc2c1[nH]c1cc(OCCCN)ccc12.Cl [Compound 10-5b, 3-(7-oxy-1-methyl-9-H-b-carbolin)propylamine hydrochloric acid] | 8 | – | – | –
Cc1nccc2c1[nH]c1cc(N)ccc12 [Compound 10-9, 7-amino-1-methyl-9H-b-carboline] | – | 8 | – | –
Cc1nccc2c1[nH]c1cc(NC(=O)c3ccccc3)ccc12 [Compound 10-10, 7-benzamide-1-methyl-9H-b-carboline] | 37 | – | – | % DYRK1A Inhibition 1000 nM (1000 nM): 65%
C=CCn1c2cc(OC)ccc2c2ccnc(C)c21 [Compound 20-1t, 3-(7-Methoxy-1-methyl-β-carbolin-9-yl)-propan-1-ene] | – | 90 | 97 | –
COc1ccc2c3ccnc(C)c3n(CCc3ccccc3)c2c1 [Compound 20-1y, 2-(7-Methoxy-1-methyl-β-carbolin-9-yl)-1-phenylethane] | – | 93 | 98 | –
COc1ccc2c3ccnc(C)c3n(CCCN(C)C)c2c1 [Compound 20-9a, N,N-dimethyl-3-(7-Methoxy-1-methyl-β-carbolin-9-yl)propylamine] | – | 10 | 26 | –
CCCCNC(=O)CCCn1c2cc(OC)ccc2c2ccnc(C)c21 [Compound 20-10d, N-(butyl)-4-(7-Methoxy-1-methyl-β-carbolin-9-yl)butanamide] | – | 38 | 76 | –
CCCC(C)NC(=O)CCCn1c2cc(OC)ccc2c2ccnc(C)c21 (stereo not drawn) [Compound 20-10e, N-(1-methylbutyl)-4-(7-Methoxy-1-methyl-β-carbolin-9-yl)butanamide] | – | 42 | 74 | –
CCCCNC(=O)C(C)CCn1c2cc(OC)ccc2c2ccnc(C)c21 (stereo not drawn) [Compound 20-10i, N-(butyl)-4-(7-Methoxy-1-methyl-β-carbolin-9-yl)-α-methylbutanamide] | – | 25 | 53 | –
CCCC(C)NC(=O)C(C)CCn1c2cc(OC)ccc2c2ccnc(C)c21 (stereo not drawn) [Compound 20-10j, N-(1-methylbutyl)-4-(7-Methoxy-1-methyl-β-carbolin-9-yl)-α-methylbutanamide] | – | 33 | 69 | –
CCCC(C)NC(=O)C(C)(C)CCn1c2cc(OC)ccc2c2ccnc(C)c21 (stereo not drawn) [Compound 20-10l, N-(1-methylbutyl)-4-(7-Methoxy-1-methyl-β-carbolin-9-yl)-α,α-dimethylbutanamide] | – | 83 | 96 | –
COc1ccc2c3ccnc(C)c3n(CCCC=O)c2c1 [Compound 20-15b, 4-(7-Methoxy-1-methyl-β-carbolin-9-yl)butanal] | – | 95 | 98 | –
COc1ccc2c3ccnc(C)c3n(CCC(N)C#N)c2c1 (stereo not drawn) [Compound 20-16a, 3-(7-Methoxy-1-methyl-β-carbolin-9-yl)-1-cyanopropylmine] | – | – | – | % DYRK1A Inhibition 300 nM: 88%; % DYRK1A Inhibition 1000 nM: 97%
COc1ccc2c3ccnc(C)c3n(CCC(N)C(N)=O)c2c1 (stereo not drawn) [Compound 20-17a, 3-(7-Methoxy-1-methyl-β-carbolin-9-yl)-1-(carboxylamide)propylmine] | 93 | – | – | % DYRK1A Inhibition 1000 nM (1000 nM): 98%
C#CCn1c2cc(OC)ccc2c2ccnc(C)c21 [Compound 20-23a, 3-(7-Methoxy-1-methyl-β-carbolin-9-yl)-propan-1-yne] | – | 98 | 100 | –
C#CCCn1c2cc(OC)ccc2c2ccnc(C)c21 [Compound 20-23b, 4-(7-Methoxy-1-methyl-β-carbolin-9-yl)-but-1-yne] | – | 89 | 97 | –
COCCn1cc(CCCn2c3cc(OC)ccc3c3ccnc(C)c32)nn1 [Compound 20-24b, 4-(3-(7-Methoxy-1-methyl-β-carbolin-9-yl)propyl)-1-(2-methoxyethyl)-1,2,3-triazole] | – | 42 | 78 | –
Cc1nccc2c1[nH]c1cc(OC(F)(F)F)ccc12 [Compound 20-35, 7-trifluoromethoxy-1-methyl-9H-pyrido[3,4-b]-indole] | – | – | 31 | –
